Experiments:
5-HT2A [1] = target: T1, 5-HT2A (Homo sapiens, UniProt P28223); test: Serotonin 5-HT2A in vitro radioligand binding competition assay ([3H]-DOI); conditions: read-out: 5-HT2A Radioligand Binding Activity; competition with [3H]-DOI, membrane extracts
5-HT2A [2] = target: T1, 5-HT2A; test: Serotonin 5-HT2A in vitro cellular IPOne agonism assay (HTRF); format: cell-based; conditions: read-out: 5-HT2A IPOne Agonism Activity; CHO-K1 cells, 60 min at 37° C.
rat cortical neurons = test: Neurite outgrowth in primary neuronal cultures assay; parameters: key to the marks not given beside the values; conditions: 72 h, vs DMSO control, at 10 μM or less

Amino acid sequences for entries named in this document (tags omitted).
UniProt P28223, whole entry: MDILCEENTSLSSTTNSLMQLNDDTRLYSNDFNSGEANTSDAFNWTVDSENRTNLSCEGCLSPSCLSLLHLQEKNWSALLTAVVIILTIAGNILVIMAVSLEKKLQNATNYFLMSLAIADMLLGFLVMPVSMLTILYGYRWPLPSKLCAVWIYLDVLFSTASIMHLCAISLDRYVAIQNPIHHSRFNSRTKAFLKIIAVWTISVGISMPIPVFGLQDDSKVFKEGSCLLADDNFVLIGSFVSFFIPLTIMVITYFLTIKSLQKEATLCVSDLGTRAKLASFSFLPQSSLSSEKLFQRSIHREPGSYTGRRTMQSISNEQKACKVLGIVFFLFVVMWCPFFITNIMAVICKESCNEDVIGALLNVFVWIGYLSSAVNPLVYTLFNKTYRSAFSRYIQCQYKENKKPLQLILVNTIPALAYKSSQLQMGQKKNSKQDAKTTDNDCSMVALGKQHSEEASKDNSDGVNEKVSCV

SMILES	IC50 (5-HT2A [1]) [nM]	EC50 (5-HT2A [2]) [nM]	Increase in Neurite Length (rat cortical neurons)	Increase in Neurite Number (rat cortical neurons)
CCN(CC)C(=O)C1C=C(c2c(OC)cccc2OC)CN(C)C1 (single isomer, unassigned) [Compound 3]	1000 to 10000	101 to 1000	B	B
CCN(CC)C(=O)C1C=C(c2c(OC)cccc2OC)CN(C)C1 (single isomer, unassigned) [Compound 4]	1000 to 10000	101 to 1000	A	A
